# In PubChem BioAssay AID624319 (Sanford-Burnham Center for Chemical Genomics, 2012):
# Sequences of proteins named here, by UniProt entry; tags and fusion partners are left off. A change or cut given only in a name is not applied to a line headed by its entry.
# UniProt Q96LD8: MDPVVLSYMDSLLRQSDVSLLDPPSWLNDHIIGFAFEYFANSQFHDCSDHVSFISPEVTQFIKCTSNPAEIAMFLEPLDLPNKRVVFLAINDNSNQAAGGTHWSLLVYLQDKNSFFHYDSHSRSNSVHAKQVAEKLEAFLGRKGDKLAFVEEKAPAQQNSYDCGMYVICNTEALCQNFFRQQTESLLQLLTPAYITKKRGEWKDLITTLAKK
# Only a part is listed here, and it is no random draw. Calls of active or inactive are those of the source. No stated cut-off is given here; in the data, active means inhibition mostly above about 39% (no sharp cut-off); inactive means mostly below about 34%.
# Target: Sentrin-specific protease 8 (Homo sapiens) (UniProt Q96LD8)
# Assay: retest of SENP8 deneddylase blockers – biochemical, Nedd8 protein substrate, single concentration, confirmation (AID 624319)
# Settings: purified SENP8, Nedd8-AMC/pro-Nedd8 cleavage fluorescence, 30 min; at 25 µM; stronger effect = higher value
row,Structure (SMILES),inhibition
1,O=[N+]([O-])c1ccc(-c2cc([N+](=O)[O-])c(O)c([N+](=O)[O-])c2)cc1,inactive: 29.4%
2,CSc1ccc(Nc2c([N+](=O)[O-])cc([N+](=O)[O-])cc2[N+](=O)[O-])cc1,inactive: 32.2%
3,CN(C)C(=O)c1cc([N+](=O)[O-])cc2c1-c1c(cc([N+](=O)[O-])cc1[N+](=O)[O-])C2=O,active: 54.8%
4,O=c1c2cc([N+](=O)[O-])ccc2[nH]c2c([N+](=O)[O-])cc([N+](=O)[O-])cc12,inactive: 20.7%
5,O=[N+]([O-])c1cc([N+](=O)[O-])c(CCNc2ccccc2)c([N+](=O)[O-])c1,inactive: 37.5%
6,CC1CCN(C(=O)Oc2c(Cl)cc(Cl)c3cccnc23)CC1,inactive: 26.8%
